Assay results from PubChem BioAssay (EPA / NIEHS).
The entries are a selection whose mix differs from that of the whole data set. Records with an inconclusive call do not appear. Activity calls are given as the source filed them. How the source made its calls: active means hit-call score of the fitted dose curve at least 0.9, where 1 is the maximum; inconclusive means response in the unintended direction; inactive means score below 0.9.

Protein sequences, listed by entry. Tags and fused reporters are not part of them.
UniProt P03372, whole entry: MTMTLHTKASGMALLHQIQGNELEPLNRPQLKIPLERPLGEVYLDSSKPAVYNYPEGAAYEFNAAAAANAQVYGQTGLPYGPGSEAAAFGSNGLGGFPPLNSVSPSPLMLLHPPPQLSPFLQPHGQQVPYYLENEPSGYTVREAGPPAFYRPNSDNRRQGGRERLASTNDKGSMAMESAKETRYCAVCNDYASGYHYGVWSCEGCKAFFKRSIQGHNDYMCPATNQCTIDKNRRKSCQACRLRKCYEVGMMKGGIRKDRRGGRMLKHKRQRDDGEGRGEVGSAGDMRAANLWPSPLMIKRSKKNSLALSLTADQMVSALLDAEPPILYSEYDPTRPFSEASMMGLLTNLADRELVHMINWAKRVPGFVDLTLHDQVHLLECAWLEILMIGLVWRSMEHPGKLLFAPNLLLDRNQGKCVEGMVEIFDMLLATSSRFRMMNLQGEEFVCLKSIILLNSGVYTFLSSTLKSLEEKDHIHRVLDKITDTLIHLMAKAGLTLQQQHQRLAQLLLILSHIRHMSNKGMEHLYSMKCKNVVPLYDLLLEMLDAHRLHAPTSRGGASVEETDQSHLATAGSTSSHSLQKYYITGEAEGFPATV
UniProt P11474, whole entry: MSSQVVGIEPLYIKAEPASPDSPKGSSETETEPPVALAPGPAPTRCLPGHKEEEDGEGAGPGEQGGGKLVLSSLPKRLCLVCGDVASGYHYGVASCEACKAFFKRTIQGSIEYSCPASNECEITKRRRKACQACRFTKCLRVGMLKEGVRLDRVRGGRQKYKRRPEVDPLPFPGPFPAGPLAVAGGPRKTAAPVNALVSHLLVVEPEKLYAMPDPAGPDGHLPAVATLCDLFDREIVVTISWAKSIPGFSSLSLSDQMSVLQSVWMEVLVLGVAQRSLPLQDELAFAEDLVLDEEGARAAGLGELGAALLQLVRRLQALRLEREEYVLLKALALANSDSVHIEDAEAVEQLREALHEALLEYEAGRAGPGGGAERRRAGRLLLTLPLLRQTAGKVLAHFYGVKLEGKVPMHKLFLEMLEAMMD
UniProt P62508, whole entry: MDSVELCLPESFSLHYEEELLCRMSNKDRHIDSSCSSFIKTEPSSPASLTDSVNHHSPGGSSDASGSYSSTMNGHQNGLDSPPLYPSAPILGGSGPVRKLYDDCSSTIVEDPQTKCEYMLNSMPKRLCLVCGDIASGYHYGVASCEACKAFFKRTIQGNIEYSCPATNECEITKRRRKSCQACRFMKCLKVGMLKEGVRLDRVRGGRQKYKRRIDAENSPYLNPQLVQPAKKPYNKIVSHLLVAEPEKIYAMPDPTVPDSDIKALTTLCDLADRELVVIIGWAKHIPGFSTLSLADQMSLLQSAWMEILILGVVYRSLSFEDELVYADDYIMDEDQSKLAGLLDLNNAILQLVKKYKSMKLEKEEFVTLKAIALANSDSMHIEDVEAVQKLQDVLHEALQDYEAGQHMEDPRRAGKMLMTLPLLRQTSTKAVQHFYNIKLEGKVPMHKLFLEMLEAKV

Columns and labels:
[1] = biological target: Estrogen receptor (Homo sapiens) (UniProt P03372); assay: ATG_ERa_TRANS: Attagene TRANS-FACTORIAL HepG2 Assay for human Estrogen Receptor alpha (ERa) (AID 2282970); conditions: HepG2 Attagene TRANS ERa GAL4 reporter, mRNA
Outline: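 Signal derives from fluorescence of labelled reporter PCR fragments separated by capillary electrophoresis. HepG2 cells transiently carrying multiple GAL4-UAS reporter units were treated 24 hours, and induction above DMSO baseline was fitted as activity.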

[2] = biological target: Steroid hormone receptor ERR1 (Homo sapiens) (UniProt P11474); assay: ATG_ERRa_TRANS: Attagene TRANS-FACTORIAL HepG2 Assay for human Estrogen-Related Receptor alpha (ERRa) (AID 2282971); conditions: HepG2 Attagene TRANS reporter, ERRa transactivation
Outline: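 Signal gain relative to DMSO for an ERRa-Gal4 chimeric receptor, read as reporter mRNA by RT-PCR/capillary electrophoresis. Human HepG2 liver cells, transient multiplex reporter transfection, 24 h chemical exposure.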

[3] = biological target: Estrogen-related receptor gamma (Homo sapiens) (UniProt P62508); assay: ATG_ERRg_TRANS: Attagene TRANS-FACTORIAL HepG2 Assay for human Estrogen-Related Receptor gamma (ERRg) (AID 2282977); conditions: HepG2 Attagene TRANS reporter, ERRg transactivation;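 further: hits increase reporter signal over DMSO so potencies reflect activators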
Outline: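 Exogenous NR-Gal4 chimera activity measured as reporter transcript induction after 24 h in transiently transfected HepG2 cells. RNA reverse-transcribed, PCR-amplified, 6-FAM-labelled and resolved by capillary electrophoresis; increase over DMSO baseline.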

O=[N+]([O-])OCC(CO[N+](=O)[O-])(CO[N+](=O)[O-])CO[N+](=O)[O-]
AC50 [1]: active: 100 µM

COc1ccc([N+](=O)[O-])cc1[N+](=O)[O-]
outcome [1]: inactive

CC(C)N(CCO)C(C)C
outcome [2]: inactive

COP(C)(=O)OC
outcome [2]: inactive
outcome [3]: inactive

Cc1cccc([N+](=O)[O-])c1[N+](=O)[O-]
outcome [3]: inactive
